Data published in PubChem BioAssay AID504454 (NMMLSC, 2011).
The entries are a selection whose mix differs from that of the whole data set. Some results for these compounds are left out of this collection, so the calls shown say nothing about other tests. The source made the active and inactive calls.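 How the source made its calls: active means response above a set limit, near 3 SD of response in nonfluorescent compounds (cut at about 42% in these data); inactive means the rest.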

The chains behind the UniProt entries cited, without tags or fusion partners.
UniProt P07550, whole entry: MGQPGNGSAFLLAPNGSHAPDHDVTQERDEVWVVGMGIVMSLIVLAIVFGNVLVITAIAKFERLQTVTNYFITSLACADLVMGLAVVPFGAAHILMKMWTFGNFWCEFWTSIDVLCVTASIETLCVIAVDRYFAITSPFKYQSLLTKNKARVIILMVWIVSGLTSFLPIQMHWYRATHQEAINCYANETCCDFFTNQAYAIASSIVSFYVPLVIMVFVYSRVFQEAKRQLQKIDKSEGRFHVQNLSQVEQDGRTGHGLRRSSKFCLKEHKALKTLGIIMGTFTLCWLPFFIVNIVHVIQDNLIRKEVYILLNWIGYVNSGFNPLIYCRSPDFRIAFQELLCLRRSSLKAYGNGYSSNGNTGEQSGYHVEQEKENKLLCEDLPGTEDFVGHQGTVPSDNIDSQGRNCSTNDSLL

Each compound was assayed against Beta-2 adrenergic receptor (Homo sapiens) (UniProt P07550) (assay: beta2AR agonists driving receptor internalization, primary screen, cell-based, FAP fluorogen, flow cytometry (AID 504454)). Settings: Am2.2-beta2AR cells, stronger effect = higher value, concentration not given here.
With COc1ccc(Br)c(C(=O)NCC2(N3CCCCC3)CCCCC2)c1 the response was inactive: 6.6%.
CN(C)c1cccc(C(=O)NCC2(N(C)C)CCCCC2)c1 was tested, and the response was inactive: 7.01%.
O=C(OCCN1CCCC1)C(O)(c1ccccc1)c1ccccc1 was tested, and the response was inactive: -2.39%.
In the case of CC(C)Oc1ccc(C(=O)NCC2(N(C)C)CCCCC2)cc1, the response is reported as inactive: -2.36%.
For O=C(OC1CN2CCC1CC2)C(CO)(c1ccccc1)c1ccccc1 (stereo not given), the response was inactive: -0.98%.
For COc1ccc(Cl)cc1C(=O)NCC1(N(C)C)CCCCC1, the response was inactive: -14.4%.
For COc1cccc(C(=O)NCC2(N3CCCCC3)CCCCC2)c1, the response was inactive: 0.52%.
With O=C(NCC1(N2CCCCC2)CCCCC1)c1cccc(Cl)c1 the response was inactive: 1.77%.
CN(C)C1(CNC(=O)c2ccc(Br)cc2)CCCCC1 was tested, and the response was inactive: -2.37%.
For COc1cc(C(=O)NCC2(N(C)C)CCCCC2)c([N+](=O)[O-])cc1OC, the response was inactive: -3.31%.
O=C(NCC1(N2CCCCC2)CCCCC1)c1cc(F)c(F)cc1Cl was tested, and the response was inactive: -3.58%.
For C=CCN1CCN(CCOC(=O)C(O)(c2ccccc2)c2ccccc2)CC1, the response was inactive: 1.11%.
For O=C(NCC1(N2CCCCC2)CCCCC1)c1cccc(Br)c1, the response was inactive: 5.52%.
With Cc1cc(C(=O)NCC2(N3CCCCC3)CCCCC2)ccc1[N+](=O)[O-] the response was inactive: -1.28%.
CCN1CCCC(OC(=O)C2(O)c3ccccc3C=Cc3ccccc32)C1 (stereo not given) was tested, and the response was inactive: 3.06%.
With COc1ccc(C(=O)NCC2(N(C)C)CCCCC2)cc1 the response was inactive: -8.11%.
CN(C)C1CCCC1OC(=O)C(O)(c1ccccc1)c1ccccc1 (stereo not given) was tested, and the response was inactive: -1%.
For CN(C)c1ccc(C(=O)NCC2(N(C)C)CCCCC2)cc1, the response was inactive: 0.29%.
With Cc1ccccc1C(=O)NCC1(N2CCCCC2)CCCCC1 the response was inactive: 0.39%.
CC(C)N1C(=O)CC2(CCN(CCOC(=O)C(O)(c3ccccc3)c3ccccc3)CC2)C1=O was tested, and the response was inactive: 2.01%.
For COc1cc(SC)ccc1C(=O)NCC1(N(C)C)CCCCC1, the response was inactive: -12.4%.
CCN(CC)CC(C)C(C)OC(=O)C(O)(c1ccccc1)c1ccccc1 (stereo not given) was tested, and the response was inactive: 0%.
With Cc1ccc(C(=O)NCC2(N3CCCCC3)CCCCC2)cc1 the response was inactive: -13%.
In the case of O=C(NCC1(N2CCCCC2)CCCCC1)c1cc([N+](=O)[O-])ccc1Cl, the response is reported as inactive: 3.26%.
In the case of CN1[C@@H]2CC[C@H]1CC(OC(=O)C(O)(c1ccccc1)c1ccccc1)C2 (stereo not given in full), the response is reported as inactive: -6.13%.
